# Sfp PPTase inh – inhibitors of Bacillus subtilis Sfp phosphopantetheinyl transferase; Q9F4F7; Biochemical Sfp PPTase activity, qHTS; Potency, µM, inactives show max response, negative = inhibition, actives largely listed as inhibitors; hit rate 3.5% among 310,000; AID 1490; active means well fitted inhibition curve with a large enough effect; inconclusive means small, poorly fitted or top-dose-only effect, or another doubt; inactive means no such curve, though single readings can be large or run the other way;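 further: the enzyme is Sfp with the accession as filed and its product quenches rhodamine fluorescence; potency means the concentration at half of the fitted maximal effect; 0% = enzyme reaction without inhibitor and -100% = no enzyme wells; top concentration of the series not given in the record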
#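 Fluorescence-quenching assay: 15 nM Sfp-PPTase preincubated 15 min at room temperature with compound, then 5 uM rhodamine-CoA and 12.5 uM BHQ-2-labelled YbbR peptide added. Fluorescence (ex 525/em 598 nm) read at start and after 30 min; difference gives rate.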
# Lamin A splicing – changes lamin A minigene splicing in HeLa cells; HeLa LMNA splicing GFP/RFP minigene ratio, 48 h; Potency, µM (doses to about 46.1 µM), for inactives: at the highest dose ratio change, negative = inhibition, actives largely listed as inhibitors; 200,000 compounds, 0.01% hits; active = well fitted inhibition curve with a large enough effect in the signal ratio, with a control signal flat, not every such curve was filed as active; inconclusive = small, poorly fitted or top-dose-only effect, or effect the other way, or a change in a side signal; the % refers to the signal ratio; note: potency is the fitted concentration of half-maximal effect; % is set by controls: 0 for no effect and ±100 for the full control effect
#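 Read-out is the ratio of GFP to DsRed2 object intensity, acquired by 488 nm laser-scanning cytometry on HeLa lamin A-EGFP minigene reporter cells. Compound incubation 48 hrs at 37 °C in Opti-MEM with 2% FBS; DMSO 0.5% final.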
# KDM4E inh – inhibitors of human JMJD2E histone demethylase; AID 2147; 230,000 compounds, 1.6% hits; Potency, µM (top dose mostly 57.1 µM), without a hit: at the highest dose activity change, negative = inhibition, most hits filed as inhibitors; B2RXH2; JMJD2E catalytic domain, FDH-coupled NADH fluorescence (FDH is formaldehyde dehydrogenase);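 note: potency is the fitted concentration of half-maximal effect; 0% = wells with enzyme and -100% = buffer wells without enzyme; nearly all actives have a fitted effect of over 50% in size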
# miR-21 reporter – miR-21 reporter, rising signal; HeLa miR-21 FLuc reporter, luciferase, 48 h; Potency, µM (titrated, usually from 38.3 µM), without a hit: top-dose reporter change, positive = more light; AID 2288; 340,000 tested, under 10 active; active = well fitted rising curve with a large enough effect; inconclusive = small, poorly fitted or top-dose-only effect; inactive = no such curve, though single readings can be large or run the other way;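 further: % of control where 0% means no effect; miR-21 action dims this reporter so a rising signal means less miR-21 action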
#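 Luminescence from a firefly luciferase reporter carrying a miR-21 binding site downstream, stably expressed under a CMV promoter in HeLa cells that make miR-21 endogenously, reports miRNA modulation after 48 h compound exposure up to approximately 40uM final.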
# ALDH1A1 inh – inhibitors of human aldehyde dehydrogenase 1A1; P00352; Purified ALDH1A1, NADH fluorescence, propionaldehyde substrate; Potency, µM (highest dose often 75.3 µM), inactives show at the top dose activity, negative = inhibition, actives largely listed as inhibitors; 220,000 compounds, 7.3% hits; AID 1030; active = well fitted inhibition curve with a large enough effect, not every such curve was filed as active; inconclusive = small, poorly fitted or top-dose-only effect, or another doubt; inactive = no such curve, though single readings can be large or run the other way;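 note: potency is the fitted concentration of half-maximal effect; plate controls were no enzyme wells and a reference inhibitor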
# G9a inh – G9a (human) methyltransferase inhibition; Q96KQ7; G9a H3K9 monomethylation, AlphaScreen, 2 h; Potency, µM (series often up to 102 µM), inactives show top-dose activity, negative = inhibition, usual class: inhibitors; 350,000 compounds, 8.8% hits; note: potency is the fitted concentration of half-maximal effect; % is set by controls: 0 for no effect and ±100 for the full control effect; nearly all actives have a fitted effect of over 75% in size
#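 G9a (20 nM) preincubated 15 min RT with compounds, then 500 nM biotinylated H3K9 peptide and 20 uM SAM added; 2 h RT reaction. Monomethyl-H3K9 product detected by AlphaScreen with anti-H3K9me1 antibody, streptavidin donor and anti-rabbit IgG acceptor beads.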
# An asterisk follows results filed as active; ? = inconclusive; . = no result; [ ] = remark or other dose. This is a sample that favours compounds with a hit; in the whole collection about 13% have one here. Unless noted, calls come from the whole dose curve; as a rule, active = well fitted curve in the direction sought with a large enough effect; inconclusive = small, poorly fitted or top-dose-only effect, or another doubt; inactive = no such curve, though single readings can be large; an effect the other way counts as inactive or inconclusive.
# Fields – G9a inh, miR-21 reporter, Lamin A splicing, Sfp PPTase inh, ALDH1A1 inh, KDM4E inh
Cc1cccc(NC(=O)CN2C(=O)S/C(=C\c3ccc(O)c([N+](=O)[O-])c3)C2=O)c1
 : 35µM*, 7%, ., -8%, ?, -4%
Cc1cccc(NC(=O)CN2C(=O)N/C(=C\c3cccn3-c3cccc(C(=O)O)c3)C2=O)c1
 : 35µM*, 2%, 0%[46 µM], 50µM*, -8%, ?
Cc1ccc(-n2cccc2/C=C2/NC(=O)N(CC(=O)Nc3cccc(C)c3)C2=O)cc1
 : ?, -15%, 5%, -27%, 2%, ?
O=C(O)c1cccc(-n2cccc2/C=C2/NC(=O)N(c3ccc(Cl)cc3)C2=O)c1
 : 1.4µM*, -13%, ., 14µM*, -15%, ?
Cc1cc(/C=C2/NC(=O)N(c3ccccc3)C2=O)c(C)n1-c1cccnc1
 : ?, -52%, -7%, 4%, 4.5µM*, 20µM*
Cc1ccc(NC(=O)CN2C(=O)S/C(=C/c3ccc(O)c([N+](=O)[O-])c3)C2=O)cc1C
 : ., 2%, ?, ?, ?, ?
COc1ccc(-n2cccc2/C=C2/NC(=O)N(c3cccc(Cl)c3)C2=O)cc1
 : ?, -21%, -6%, -12%, 1%, -15%
COc1cc(CN2CCNC(=O)C2CC(=O)N(C)CCCN2CCOCC2)cc(OC)c1 (stereo not drawn)
 : ?, -1%, ., 3%, ., .
CCCCCCCCCCCCCCCC(=O)OCC(NC(=O)C(Cl)Cl)C(O)c1ccc([N+](=O)[O-])cc1 (stereo not drawn)
 : 24%[59 µM], ., ., 29%, 7%, .
COCCNC(=O)c1nn(-c2ccc(C)cc2)c(=O)n(C)c1=O
 : 4%[59 µM], -2%, -2%[46 µM], ., ., .
COc1ccc(N=C2S/C(=C\c3cc(C)n(C)c3C)C(=O)N2C)cc1
 : ?, -19%, -7%, -19%, ?, -12%
CCCN1C(=O)/C(=C/c2cc(C)n(C)c2C)SC1=Nc1ccc(OC)cc1
 : ?, -16%, -5%, -13%, 2µM*, -15%
Cc1ccc(NC(=O)n2ncc3c(C)cccc32)c(C)c1
 : -21%, -35%, ., 10%, ., .
Cc1cccc2c1cnn2C(=O)Nc1ccc(Br)cc1F
 : 35µM*, -14%, ., 8%, ., .
O=C(c1ccc(Cl)c(S(=O)(=O)N2CCCCC2)c1)N1CCCC1
 : 15%, -5%, ., 9%, ., .
N#Cc1nc(-c2ccc(COc3ccccc3)o2)oc1N1CCN(c2ccccc2)CC1
 : ?, -2%, 18%[46 µM], ., ., .
Cc1ccc(OCc2ccc(-c3nc(C#N)c(N4CCC(C)CC4)o3)o2)cc1
 : 10µM*, -8%, ?, ., ., .
CC1CCN(c2oc(-c3ccc(COc4ccccc4)o3)nc2C#N)CC1
 : 5µM*, -14%, ?, ., ., .
COc1ccc(OCc2ccc(-c3nc(C#N)c(N4CCC(C)CC4)o3)o2)cc1
 : 3.5µM*, -12%, 19%[46 µM], ., ., .
COc1ccc(-c2cc(C(=O)N3CCN(C(=O)c4ccco4)CC3)[nH]n2)cc1
 : ., -5%, ., 9%, ., .
CCC(C)C(NC(=O)OCc1ccccc1)C(=O)NC(Cc1ccc(O)cc1)C(=O)OC (stereo not drawn)
 : 1%, 1%, ., -14%, -4%, -8%
O=Nc1ccc(NO)cc1
 : ., ., ., ., 10µM*, .
COC(=O)/C(=C(/F)SCC(C)=O)C(F)(F)F
 : 16µM*, 0%, 8%, -5%, ?, 2%
O=C(Nc1ccccc1N1CCCC1)c1cccc(F)c1
 : 35µM*, -5%, ., 12%, ., .
O=C(NC(=S)Nc1ccccc1N1CCCCC1)c1ccc(F)cc1Cl
 : -7%[12.7 µM], 4%, ., 10%, ., .
CC(C)Oc1ccc(C(=O)Nc2ccccc2N2CCCC2)cc1
 : 45µM*, -1%, -9%, 3%, -10%, -11%
O=C(NC(=S)Nc1ccccc1N1CCCC1)c1cccc(F)c1
 : 25µM*, -16%, ., ?, 8.9µM*, -12%
O=C(Nc1ccc(F)cc1)c1ccc(-n2cnnc2)cc1
 : -3%[59 µM], -12%, 20%[46 µM], ., ., .
COCC(=O)N1CCC2(CCCN(c3ccncc3)C2)CC1
 : 4%[12.7 µM], ., ., 5%, 2%, .
COC(=O)Cc1c(O)ccn(Cc2ccc3c(c2)OCO3)c1=O
 : -5%[59 µM], 2%, ?, 3%, 12%, -3%

# Sorted by formula weight (falling): part of the list above.
# Fields – G9a inh, miR-21 reporter, Lamin A splicing, Sfp PPTase inh, ALDH1A1 inh, KDM4E inh
CCC(C)C(NC(=O)OCc1ccccc1)C(=O)NC(Cc1ccc(O)cc1)C(=O)OC (stereo not drawn)
 : 1%, 1%, ., -14%, -4%, -8%
Cc1cccc(NC(=O)CN2C(=O)S/C(=C\c3ccc(O)c([N+](=O)[O-])c3)C2=O)c1
 : 35µM*, 7%, ., -8%, ?, -4%
COc1ccc(OCc2ccc(-c3nc(C#N)c(N4CCC(C)CC4)o3)o2)cc1
 : 3.5µM*, -12%, 19%[46 µM], ., ., .
O=C(c1ccc(Cl)c(S(=O)(=O)N2CCCCC2)c1)N1CCCC1
 : 15%, -5%, ., 9%, ., .

# (more compounds)
# Fields – G9a inh, miR-21 reporter, Lamin A splicing, Sfp PPTase inh, ALDH1A1 inh, KDM4E inh
O=c1c(Cc2c(F)cccc2Cl)c(O)ccn1Cc1ccc2c(c1)OCO2
 : -11%, -5%, -15%[46 µM], 2%, 7.9µM*, -7%
COc1ccc(N=Nc2cc(C)c(O)c(CN3CCCCC3)c2)cc1
 : 11µM*, -9%, 3%[46 µM], 1%, 0%, ?
CCCCC(=O)Nc1ccc2c3c(cccc13)C(=O)N2CC
 : 4%[12.7 µM], -6%, ?, 6%, 7.1µM*, -2%
CCN1C(=O)c2cccc3c(NC(=O)c4cccc(N5C(=O)CCC5=O)c4)ccc1c23
 : -48%, 8%, -12%, 8%, 2µM*, -1%
CCN1C(=O)c2cccc3c(NC(=O)C(C)(C)C)ccc1c23
 : ?, -4%, 4%, 10%, ?, -6%
CC(=O)c1cccc(NC(=O)c2sc(-n3nc(C)c(Cc4ccc5c(c4)OCO5)c3C)nc2C)c1
 : -8%[59 µM], -6%, 3%[46 µM], ., ., .
CCOC(=O)C1=C(COC(=O)C2CC(=O)N(c3ccccc3F)C2)NC(=O)NC1C (stereo not drawn)
 : 4%[12.7 µM], ., ., ., ., .
CCCCNC(=O)c1cc2cc(CC)ccc2[nH]1
 : ., -9%, ., -7%, ., ?
CC1CCN(S(=O)(=O)c2ccc3c(c2)NC(=O)CS3)CC1
 : -11%, -1%, ., 14%, ., .
CN(C)Cc1nc2c([nH]1)c(=O)n(C)c(=O)n2C
 : ?, 1%, -4%, 56µM*, 0%, -8%
Cc1cc(C)nc(CCNC(=O)CC2C(=O)NCCN2Cc2ccccc2)n1 (stereo not drawn)
 : ?, 0%, ., 9%, ., .
Cc1cc(C)c(NC(=O)CN2CCN3CCCC3C2)c(C)c1 (stereo not drawn)
 : 11µM*, -8%, -4%, -17%, 2%, 1%

# Shown with each value named: entries from further up
CCCCNC(=O)c1cc2cc(CC)ccc2[nH]1
  G9a inh = .	miR-21 reporter = -9%	Lamin A splicing = .	Sfp PPTase inh = -7%	ALDH1A1 inh = .	KDM4E inh = ?
CC1CCN(S(=O)(=O)c2ccc3c(c2)NC(=O)CS3)CC1
  G9a inh = -11%	miR-21 reporter = -1%	Lamin A splicing = .	Sfp PPTase inh = 14%	ALDH1A1 inh = .	KDM4E inh = .

# Source: PubChem (National Center for Advancing Translational Sciences (NCATS))
